Data on two compounds can be found in PubChem BioAssay AID1510 (The Scripps Research Institute Molecular Screening Center, 2009).

Protein sequences, listed by entry. Tags and fused reporters are not part of them.
UniProt O95977, whole entry: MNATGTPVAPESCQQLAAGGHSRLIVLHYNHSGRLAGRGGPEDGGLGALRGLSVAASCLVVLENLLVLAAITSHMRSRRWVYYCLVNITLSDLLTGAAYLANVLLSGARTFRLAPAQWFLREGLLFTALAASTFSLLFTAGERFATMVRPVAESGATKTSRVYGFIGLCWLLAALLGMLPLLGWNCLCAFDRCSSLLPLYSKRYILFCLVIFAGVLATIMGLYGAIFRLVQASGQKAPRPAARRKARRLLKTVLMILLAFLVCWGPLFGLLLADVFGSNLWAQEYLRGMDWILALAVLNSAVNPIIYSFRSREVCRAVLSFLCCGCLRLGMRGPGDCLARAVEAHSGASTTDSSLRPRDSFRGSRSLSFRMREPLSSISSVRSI

The entries are a selection whose mix differs from that of the whole data set. The source made the active and inactive calls. Cut-off read from the data, not from the text of the source: active = inhibition above about 29%; inactive = the rest.

This test deals with Sphingosine 1-phosphate receptor 4 (Homo sapiens) (UniProt O95977). Kind of test: S1P4 receptor antagonists, primary screen, cell-based (AID 1510).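 Note: 0% = wells stimulated with agonist and 100% = vehicle wells without agonist.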 To be noted: S1P4-expressing cells, antagonist mode, reporter read-out; at 4.98 µM; active compounds read high.
As to `Cc1c2non([O-])c-2c(C)[n+](=O)[n+]1[O-]`, the inhibition is inactive: 10.4%. In the case of `CN(C(=O)Cc1ccc(Cl)c(Cl)c1)[C@@H]1CCCC[C@H]1N1CCCC1`, the inhibition was inactive: 16.2%.

As usually defined, the inhibition is how much of the control response was suppressed.
